# Test system: Human Gamma Globulin (HGG), GLOBUCEL®
# Assay: Viscosity of aqueous solutions of Human Gamma Globulin (Cambridge VISCOlab5000 or DV2T cone and plate viscometer)
# Conditions: excipient 5.84 mg/mL (100 mM), 25 mM histidine buffer pH 6.0
smiles,measurement,setting,value
[Cl-].[Na+] [Sodium Chloride],Viscosity (cP) @ 25° C.,HGG 227 mg/mL,48 cP
same,Viscosity (cP) @ 25° C.,HGG 249 mg/mL,115 cP
